The text below walks through data of PubChem BioAssay AID686964 (The Scripps Research Institute Molecular Screening Center, 2013).

Amino acid sequences for entries named in this document (tags omitted).
UniProt Q9UBB5, whole entry: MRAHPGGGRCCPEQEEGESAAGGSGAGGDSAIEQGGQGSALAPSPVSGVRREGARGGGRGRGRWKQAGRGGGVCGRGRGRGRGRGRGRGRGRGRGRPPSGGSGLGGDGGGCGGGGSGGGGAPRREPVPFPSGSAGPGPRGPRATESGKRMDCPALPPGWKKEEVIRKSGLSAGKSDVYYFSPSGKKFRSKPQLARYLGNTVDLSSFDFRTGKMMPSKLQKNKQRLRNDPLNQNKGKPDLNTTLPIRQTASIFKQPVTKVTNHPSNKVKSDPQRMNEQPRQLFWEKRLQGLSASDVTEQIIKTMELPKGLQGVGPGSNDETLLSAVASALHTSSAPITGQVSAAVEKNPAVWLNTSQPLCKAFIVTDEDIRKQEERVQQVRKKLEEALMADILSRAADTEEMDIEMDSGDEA

Usually inhibition stands for the change of the read-out against control, counted positive when it falls.

The entries are a selection whose mix differs from that of the whole data set. Some salts and complexes are drawn in separate pieces, as the source files them; their charges need not balance. The source made the active and inactive calls. Cut-off read from the data, not from the text of the source: active = inhibition above about 13%; inactive = the rest.

The target of this assay is Methyl-CpG-binding domain protein 2 (Homo sapiens) (UniProt Q9UBB5). Nature of the assay: inhibitors of MBD2 binding to methylated DNA, primary screen, biochemical, TR-FRET, DNA-binding domain, human (AID 686964). Particulars: MBD2 binding to methylated oligonucleotide, at 4.4 µM, active compounds read high. For orientation: Time-resolved FRET reads energy transfer from a long-lived donor to a nearby acceptor.
Take `COc1ccccc1OP(C)(=O)Nc1ccc(Br)cc1` (centres undefined): the inhibition is inactive: 0.51%.
As for `COc1ccc(OP(C)(=O)Nc2ccccn2)cc1` (centres undefined), the figure is inactive: -1.46%.
Take `CN(C)CCOC(=O)C(O)(c1ccccc1)C1CCCC1` (centres undefined): the inhibition was inactive: 2.36%.
As for `Cc1c(NP(C)(=O)Oc2ccc(C(C)C)cc2)c(=O)n(-c2ccccc2)n1C` (centres undefined), the figure is inactive: 2.87%.
With `O=[N+]([O-])c1cc([N+](=O)[O-])c(Nc2ccccn2)c([N+](=O)[O-])c1` the figure was inactive: 1.69%; with `CP(=O)(Nc1ccccn1)Oc1ccccc1` (centres undefined), inactive: -1.78%; with `COc1ccccc1OP(C)(=O)Nc1ccc(C)cc1C` (centres undefined), inactive: -0.91%.
With `CCc1ccc(OP(C)(=O)O)cc1` the figure was inactive: 2.2%.
Regarding `O=C1C(O)=C([N+](=O)[O-])C(=O)C(O)=C1[N+](=O)[O-]`, the inhibition was active: 15.4%.
With `Cc1cc(C)cc(OP(C)(=O)Nc2cccc(C(F)(F)F)c2)c1` (centres undefined) the figure was inactive: -2.06%.
`COc1ccccc1OP(C)(=O)Nc1ccc(C)c(C)c1` (centres undefined): the inhibition is inactive: 5.83%.
In the case of `COc1ccc(OP(C)(=O)Nc2ccccc2Br)cc1` (centres undefined), the inhibition is inactive: -1.9%.
As to `CP(=O)(Nc1ccc(Cl)cc1Cl)Oc1ccccc1` (centres undefined), the inhibition is inactive: 0.71%.
With `CCCCCCCCCCCCCCCC1C[N+](C)(C)CCOP(C)(=O)O1` (centres undefined) the figure was inactive: -4.23%; with `CP(=O)(OCCOc1ccccc1)OCCOc1ccccc1`, inactive: -3.71%; with `Nc1ccc2c(ccc3cccnc32)n1.O=[N+]([O-])c1cc([N+](=O)[O-])c(O)c([N+](=O)[O-])c1`, inactive: -3.17%.
As for `CCOC(=O)c1ccc(NP(C)(=O)Oc2ccc(Cl)cc2)cc1` (centres undefined), the figure is inactive: -6.54%; as for `CP(=O)(OC12CC3CC(CC(C3)C1)C2)OC12CC3CC(CC(C3)C1)C2`, inactive: 1.77%; as for `CCN(CC)CC(O)COC(=O)C(O)(c1ccccc1)C1CCCCC1` (centres undefined), inactive: -2.51%.
As for `COc1ccc(OP(C)(=O)Nc2ccc(Br)cc2)cc1` (centres undefined), the figure is inactive: 0.91%; as for `COc1ccccc1OP(C)(=O)Nc1c(C)n(C)n(-c2ccccc2)c1=O` (centres undefined), inactive: 1.64%; as for `O=C(OCCCN1CCCC1)C(O)(c1ccccc1)C1CCCCC1` (centres undefined), inactive: 3.87%.
Take `CP(=O)(Oc1ccccc1)N1CCOC1=O` (centres undefined): the inhibition was inactive: -0.21%.
With `CCc1ccc(OP(C)(=O)Nc2cccnc2)cc1` (centres undefined) the figure was inactive: 1.8%; with `COc1ccccc1OP(C)(=O)Nc1ccccc1Br` (centres undefined), inactive: 1.32%.
With `CC(C)(C)c1ccc(OP(C)(=O)O)cc1` the figure was inactive: -5.79%; with `CP(=O)(Nc1ccc(Cl)cc1)Oc1ccc(F)cc1` (centres undefined), inactive: 9.78%.
As for `CN(C)C(=O)c1c([N+](=O)[O-])cc([N+](=O)[O-])cc1[N+](=O)[O-]`, the figure is inactive: 3.82%.
As for `CP(=O)(Nc1ccc(SC(F)(F)F)cc1)Oc1ccc(F)cc1` (centres undefined), the inhibition was inactive: -3.89%.
In the case of `CCOP(C)(=S)SCC(=O)NC(C)(CC)C(=O)O` (centres undefined), the inhibition was inactive: 3.13%.
With `CCOP(=O)(CC)OCC` the figure was inactive: 3.38%; with `CP(=O)(Nc1ccc2c(c1)OCCO2)Oc1ccccc1` (centres undefined), inactive: 1.93%.
As for `Cc1ccccc1NP(C)(=O)Nc1ccccc1C`, the figure is inactive: -2.53%; as for `O=[N+]([O-])c1cc([N+](=O)[O-])c(C(F)(F)F)c([N+](=O)[O-])c1O`, inactive: 5.23%; as for `COc1ccc(OP(C)(=O)Nc2cccc(Br)c2)cc1` (centres undefined), inactive: 0.62%.
For the molecule `CN(C)CCOC(=O)C(O)(c1ccccc1)C1CCCCC1` (centres undefined), the inhibition was inactive: 4.09%.
With `COc1ccc(NP(C)(=O)Oc2ccccc2OC)cc1` (centres undefined) the figure was inactive: -0.38%; with `O=[N+]([O-])c1ccc(OP2(=O)COCCO2)cc1` (centres undefined), inactive: -3.77%; with `Cc1cc(-c2cccc3ccccc23)c(C)cn1.O=[N+]([O-])c1cc([N+](=O)[O-])c(O)c([N+](=O)[O-])c1`, inactive: 0.79%.
In the case of `O=[N+]([O-])c1cc([N+](=O)[O-])c(NCC2CCS(=O)(=O)C2)c([N+](=O)[O-])c1` (centres undefined), the inhibition was inactive: -0.35%.
As for `Cc1c(C(c2ccc3c(c2)OCO3)c2c(C)n(C)n(-c3ccccc3)c2=O)c(=O)n(-c2ccccc2)n1C.O=[N+]([O-])c1cc([N+](=O)[O-])c(O)c([N+](=O)[O-])c1`, the figure is inactive: 4.96%.
With `CCN(CC)CCCNc1ccccc1[N+](=O)[O-].O=[N+]([O-])c1cc([N+](=O)[O-])c(O)c([N+](=O)[O-])c1` the figure was inactive: -17.5%; with `CCOC(=O)c1ccc(NP(C)(=O)Oc2ccc(F)cc2)cc1` (centres undefined), inactive: -0.7%.
In the case of `COc1ccc(OP(C)(=O)Nc2ccc(SC(F)(F)F)cc2)cc1` (centres undefined), the inhibition was inactive: 2.66%.
With `Cc1c([N+](=O)[O-])cc([N+](=O)[O-])c(Br)c1[N+](=O)[O-]` the figure was inactive: -2.33%; with `CCN(CC)CCCOC(=O)C(O)(c1ccccc1)C1CCCCC1` (centres undefined), inactive: -3.21%.
As to `CP(=O)(Nc1ccccc1)Oc1ccc(F)cc1` (centres undefined), the inhibition is inactive: -5.26%.
With `O=[N+]([O-])c1cc([N+](=O)[O-])c(OC2CCCCC2O)c([N+](=O)[O-])c1` (centres undefined) the figure was inactive: -3.23%; with `CCCCCOc1ccc(NP(C)(=O)Oc2ccc(Cl)cc2Cl)cc1` (centres undefined), inactive: -2.21%; with `O=[N+]([O-])c1cc([N+](=O)[O-])c(Nc2ccc(Cl)cc2)c([N+](=O)[O-])c1`, inactive: -12.3%.
As for `CP(=O)(Nc1ccccc1F)Oc1ccccc1` (centres undefined), the figure is inactive: 1.9%; as for `CC(C)c1ccc(OP(C)(=O)Nc2ccc(SC(F)(F)F)cc2)cc1` (centres undefined), inactive: -5.83%.
As for `O=C(OC1CN2CCC1CC2)c1ccc([N+](=O)[O-])cc1` (centres undefined), the figure is inactive: -1.61%.
As to `O=C(OCCN1CCN(CCOCc2ccccc2)CC1)C(O)(c1ccccc1)c1ccccc1`, the inhibition is inactive: -0.61%.
As for `COc1ccc2c(c1O)-c1c(O)c(OC)cc3c1[C@H](C2)[N+](C)(C)CC3.O=[N+]([O-])c1cc([N+](=O)[O-])c([O-])c([N+](=O)[O-])c1[O-]`, the figure is inactive: -1.74%; as for `COc1ccccc1OP(C)(=O)Nc1cccc(Br)c1` (centres undefined), inactive: 2.54%.
With `CCOC(=O)c1ccc(NP(C)(=O)Oc2cc(C)cc(C)c2)cc1` (centres undefined), the inhibition is inactive: -5.05%.
As for `Cc1cc(C)cc(OP(C)(=O)Nc2ccc(C)cc2C)c1` (centres undefined), the figure is inactive: -5.09%; as for `Cc1ccc(C)c(NP(C)(=O)Oc2ccccc2)c1` (centres undefined), inactive: 2.15%.
As for `Cc1cc(C)cc(OP(C)(=O)Nc2ccccn2)c1` (centres undefined), the figure is inactive: 1.59%.
With `CP(=O)(Nc1cccc(Br)c1)Oc1ccccc1` (centres undefined) the figure was inactive: -0.94%.
Regarding `O=C(O)c1cccc(Nc2c([N+](=O)[O-])cc([N+](=O)[O-])cc2[N+](=O)[O-])c1`, the inhibition is inactive: -6.84%.
With `CC1=NCCc2c1[nH]c1ccccc21.O=[N+]([O-])c1cc([N+](=O)[O-])c(O)c([N+](=O)[O-])c1` the figure was inactive: 1.78%; with `O=[N+]([O-])c1cc([N+](=O)[O-])c(Nc2nnnn2CCO)c([N+](=O)[O-])c1`, inactive: -15.6%.
In the case of `CCOC(=O)C(CC)C1=NC(C)(C)Cc2ccccc21.O=[N+]([O-])c1cc([N+](=O)[O-])c(O)c([N+](=O)[O-])c1` (centres undefined), the inhibition was inactive: -3.58%.
With `COc1ccccc1OP(C)(=O)Nc1c(C)cccc1C` (centres undefined) the figure was inactive: 2.92%.
As for `CN1CCCCC1COC(=O)C1(O)c2ccccc2CCc2ccccc21` (centres undefined), the figure is inactive: 3.53%; as for `COc1ccc(-c2ccccn2)cc1.O=[N+]([O-])c1cc([N+](=O)[O-])c(O)c([N+](=O)[O-])c1`, inactive: -3.68%; as for `CCCOc1ccc(NP(C)(=O)Oc2ccc(Cl)cc2)cc1` (centres undefined), inactive: -3.03%.
Turning to `CP(=O)(Nc1ccc(SC(F)(F)F)cc1)Oc1ccccc1` (centres undefined), the inhibition was inactive: -2.25%.
With `O=[N+]([O-])c1cc([N+](=O)[O-])c(-n2nnc3ccccc32)c([N+](=O)[O-])c1` the figure was inactive: 3.79%.
With `CN(Cc1cccnc1)C(=O)COc1ccc(Cl)c(Cl)c1.O=[N+]([O-])c1cc([N+](=O)[O-])c(O)c([N+](=O)[O-])c1` the figure was inactive: -0.23%; with `O=[N+]([O-])c1cc([N+](=O)[O-])c(-c2cnn(-c3ccccc3)c2)c([N+](=O)[O-])c1`, inactive: 2.97%.
As for `Cc1nc2ccc3ccccc3c2s1.O=[N+]([O-])c1cc([N+](=O)[O-])c(O)c([N+](=O)[O-])c1`, the figure is inactive: -8.5%; as for `Cc1cccc(C)c1OP(C)(=O)Nc1ccc(SC(F)(F)F)cc1` (centres undefined), inactive: -0.16%; as for `CP(=O)(Nc1ccc(SC(F)(F)F)cc1)Oc1ccc(Cl)cc1` (centres undefined), inactive: -5.97%.
Regarding `CP(=O)(Oc1ccccc1)OC(c1ccccc1)C(F)(F)F` (centres undefined), the inhibition is inactive: -3.36%.
As for `CP(=O)(NC(=O)Nc1ccccc1)Oc1ccccc1` (centres undefined), the figure is inactive: -2.31%; as for `CCc1ccc(OP(C)(=O)N2CCN(c3ccc([N+](=O)[O-])cc3)CC2)cc1` (centres undefined), inactive: -2.02%; as for `Cc1cc(C)cc(OP(C)(=O)Nc2ccc(SC(F)(F)F)cc2)c1` (centres undefined), inactive: 6.34%.
On to `CCOC(=O)c1ccc(NP(C)(=O)Oc2ccc(OC)cc2)cc1` (centres undefined), for which the inhibition is inactive: -2.09%.
For the molecule `O=[N+]([O-])c1cc([N+](=O)[O-])c(O)c([N+](=O)[O-])c1.c1ccc(Oc2ccncc2)cc1`, the inhibition is inactive: 5.94%.
With `CCOP(C)(=S)SCC(=O)NC(C)C(=O)O` (centres undefined) the figure was inactive: -1.86%; with `CP(=O)(Nc1ccccn1)Oc1ccc(Cl)cc1` (centres undefined), inactive: 0.64%; with `CP(=S)(Nn1cnnc1)Oc1ccccc1` (centres undefined), inactive: -0.7%.
With `CP(=O)(Nc1ccccc1Br)Oc1ccccc1` (centres undefined) the figure was inactive: 1.94%; with `COc1ccccc1OP(C)(=O)Nc1ccccc1` (centres undefined), inactive: -0.04%.
As for `O=[N+]([O-])c1cc([N+](=O)[O-])c(Nc2cccnc2)c([N+](=O)[O-])c1`, the figure is inactive: -4.89%; as for `O=[N+]([O-])c1ccc2c(c1)C=Nc1ccccc1O2`, inactive: -1.22%.
`CC(C)(C)c1ccc(OP(C)(=O)Nc2ccc(SC(F)(F)F)cc2)cc1` (centres undefined): the inhibition is inactive: 4.72%.
With `Cc1cccc(C)c1OP(C)(N)=O` (centres undefined) the figure was inactive: -1.92%; with `COc1ccccc1OP(C)(=O)Nc1ccc(C)cc1` (centres undefined), inactive: 4.25%.
As for `Cc1ccc(NP(C)(=O)Oc2ccccc2)c(C)c1` (centres undefined), the figure is inactive: 3.56%.
With `CCOC(=O)c1ccc(NP(C)(=O)Oc2ccccc2)cc1` (centres undefined) the figure was inactive: -2.09%; with `Cc1cc(C)cc(OP(C)(N)=O)c1` (centres undefined), inactive: -6.54%; with `COc1ccccc1OP(C)(=O)Nc1cc(Cl)ccc1C` (centres undefined), inactive: -1.48%.
Consider `COc1ccc(OP(C)(=O)Nc2cccc(F)c2)cc1` (centres undefined), for which the inhibition was inactive: 2.74%.
`CCN(CC)CCCOC(=O)C(O)(c1ccccc1)c1ccccc1`: the inhibition was inactive: 6.11%.
With `COc1ccccc1-c1ccccn1.O=[N+]([O-])c1cc([N+](=O)[O-])c(O)c([N+](=O)[O-])c1`, the inhibition was inactive: -2.91%.
